Laboratory results reported in patent US9855229B2, “Treatment of respiratory disorders using ROR-gamma inhibitors” (Glenmark Pharmaceuticals S.A., priority 2015, dated 2018).

Amino acid sequences for entries named in this document (tags omitted). Residues count along the entry.
UniProt P51449, 269-508 limits assumed: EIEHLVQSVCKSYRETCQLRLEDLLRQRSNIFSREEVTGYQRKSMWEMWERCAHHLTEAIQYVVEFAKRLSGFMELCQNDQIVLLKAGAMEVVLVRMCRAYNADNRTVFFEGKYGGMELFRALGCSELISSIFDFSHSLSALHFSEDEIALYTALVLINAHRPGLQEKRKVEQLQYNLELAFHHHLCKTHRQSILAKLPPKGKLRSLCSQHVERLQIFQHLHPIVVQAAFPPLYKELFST

Experiments:
[1] = target: human RORγ receptor (GST-tagged ROR gamma ligand binding domain) (Homo sapiens (Human), UniProt P51449); test: TR-FRET assay for ROR gamma (Lantha Screen co-activator peptide recruitment); type: biochemical; conditions: read-out: IC50 value for inhibiting human RORγ receptor activity, 10 nM GST-tagged ROR gamma LBD
[2] = test system: cigarette smoke (CS) induced pulmonary inflammation model in male C57BL6/J mice; test: Cigarette smoke (CS) induced pulmonary inflammation model, 7 days exposure, BAL cell count; conditions: i.n., od, 7 days CS exposure
[3] = BAL 20 hours after last smoke exposure

SMILES | IC50 [1] [nM] | inhibition of pulmonary inflammation induced by cigarette smoke [2] | CS mediated increase in macrophages in BALf [2, 3] | CS mediated increase in neutrophils in BALf [2, 3] | CS mediated increase in total leukocyte count (TLC) in BALf [2, 3]
O=C(O)c1ccc(-n2nc(C(=O)c3c(Cl)cccc3C3CC3)c3cccnc32)cc1 | 1.98 |  |  |  | 
O=C(O)c1ccc(-n2cc(C(=O)c3c(Cl)cccc3Cl)c3ccccc32)c(F)c1 |  | significant inhibition | significantly prevented | significantly prevented | significantly prevented
CCn1c(C(C)(C)Oc2ccc(Cl)c(F)c2)nc2cc(NC(=O)Cc3ccc(S(=O)(=O)CC)cc3)ccc21 | 22.4 |  |  |  | 
